Measured values taken from patent publication US12187728B2 (Raze Therapeutics, Inc., priority 2015, dated 2025).

Amino acid sequences for entries named in this document (tags omitted). Residues count along the entry.
UniProt P13995, 36-350 limits assumed: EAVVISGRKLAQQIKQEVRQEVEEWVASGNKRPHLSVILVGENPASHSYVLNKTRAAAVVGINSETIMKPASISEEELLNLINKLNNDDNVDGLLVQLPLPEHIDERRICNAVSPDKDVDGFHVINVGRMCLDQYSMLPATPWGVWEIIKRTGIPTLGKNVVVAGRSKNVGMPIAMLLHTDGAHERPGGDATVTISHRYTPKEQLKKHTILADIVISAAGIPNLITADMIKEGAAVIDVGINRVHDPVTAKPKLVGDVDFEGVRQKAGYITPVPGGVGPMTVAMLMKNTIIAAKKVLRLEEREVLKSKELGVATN

target: Human MTHFD2 (Homo sapiens, UniProt P13995); assay: MTHFD2 Activity Assay (dehydrogenase activity, diaphorase/resazurin coupled fluorescence); type: biochemical; conditions: read-out: Average MTHFD2 Activity

Row | SMILES | IC50 [nM]
1 | Cn1c(NC2CCC(O)C2)nc2c1c(=O)n(Cc1ccc(Cl)c(Cl)c1)c(=O)n2C (single isomer, unassigned) | 10 to 1000

same assay, conditions: read-out: Average MTHFD2 Activity; inhibitory activity (IC50 and/or binding constant); 0.2 nM MTHFD2, 11 concentrations

Row | SMILES | IC50 [nM]
2 | Cn1c(N2CCCC2)nc2c1c(=O)n(Cc1cccc(Cl)c1)c(=O)n2C | > 10000
3 | COC(=O)C(C)(C)c1nc2c(c(=O)n(Cc3cc4c(Cl)cccc4[nH]3)c(=O)n2C)n1C | 1000 to 5000
4 | Cn1c(N2CCCC2)nc2c1c(=O)n(Cc1ccc(Cl)cc1)c(=O)n2C | > 10000

Second part, the compound after the results:

Row | IC50 [nM] | SMILES
5 | 1000 to 5000 | Cn1c(Nc2ccncc2)nc2c1c(=O)n(Cc1ccc3[nH]ccc3c1Cl)c(=O)n2C
6 | 10 to 1000 | Cn1ccc2c(Cl)c(Cn3c(=O)c4c(nc(Nc5ccncc5)n4C)n(C)c3=O)ccc21
